This passage reports Ki results from patent US8513232B2, “Substituted spirocyclic piperidine derivatives as histamine-3 (H3) receptor ligands” (Cephalon, Inc., priority 2008, dated 2013).

Protein sequences, listed by entry. Tags and fused reporters are not part of them.
UniProt Q9QYN8, whole entry: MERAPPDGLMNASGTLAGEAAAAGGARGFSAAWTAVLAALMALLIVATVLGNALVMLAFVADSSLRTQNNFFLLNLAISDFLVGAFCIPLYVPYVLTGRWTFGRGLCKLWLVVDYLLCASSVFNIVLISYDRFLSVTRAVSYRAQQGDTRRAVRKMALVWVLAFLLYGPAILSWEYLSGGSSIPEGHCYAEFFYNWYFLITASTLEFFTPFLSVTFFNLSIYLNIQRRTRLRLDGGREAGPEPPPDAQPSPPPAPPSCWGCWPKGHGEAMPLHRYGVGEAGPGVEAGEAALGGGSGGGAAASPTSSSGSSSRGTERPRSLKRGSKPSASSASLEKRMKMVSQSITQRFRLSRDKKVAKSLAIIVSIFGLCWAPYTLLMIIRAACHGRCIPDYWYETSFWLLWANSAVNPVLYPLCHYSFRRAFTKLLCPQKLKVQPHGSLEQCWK
UniProt Q9Y5N1, whole entry: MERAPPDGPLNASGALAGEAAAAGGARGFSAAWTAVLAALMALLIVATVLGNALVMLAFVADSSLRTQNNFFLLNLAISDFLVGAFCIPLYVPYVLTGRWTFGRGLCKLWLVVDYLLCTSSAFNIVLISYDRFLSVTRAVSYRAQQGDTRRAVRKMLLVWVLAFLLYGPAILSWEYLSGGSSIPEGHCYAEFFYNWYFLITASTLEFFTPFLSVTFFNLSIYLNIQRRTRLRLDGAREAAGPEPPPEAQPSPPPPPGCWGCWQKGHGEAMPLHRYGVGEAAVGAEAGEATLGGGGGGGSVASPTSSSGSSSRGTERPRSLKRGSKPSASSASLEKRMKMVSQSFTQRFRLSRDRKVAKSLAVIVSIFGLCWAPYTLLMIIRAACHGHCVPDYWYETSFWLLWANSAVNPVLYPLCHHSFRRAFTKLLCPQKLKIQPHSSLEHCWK

The structures appear in SMILES notation.

Assay [1] has as its target rat histamine H3 receptor (Rattus norvegicus, UniProt Q9QYN8). Briefly: Rat H3 radioligand binding ([3H]-N-alpha-methylhistamine, SPA). As to conditions: read-out: Rat Ki, Table A.
A further assay concerns the target human H3 receptor (Homo sapiens, UniProt Q9Y5N1). Nature of the assay: Human H3 radioligand binding ([3H]-N-alpha-methylhistamine, SPA). The settings on record: read-out: Human Ki, Table A. As to the method:
Methods: CHO cells stably expressing the human H3 receptor (GenBank: NM_007232) were harvested and cell pellets were frozen (−80° C.). Cell pellets were resuspended in 5 mM Tris-HCl, pH 7.5 with […] and a cocktail of protease inhibitors (Complete Protease Inhibitior Tablets, Roche Diagnostics). Cells were disrupted using a polytron cell homogenizer and the suspension was centrifuged at 1000×g for 10 minutes at 4° C. The pellet was discarded and the supernatant centrifuged at 40,000×g for 30 min at 4° C. This membrane pellet was washed in membrane buffer containing 50 mM Tris-HCl, pH 7.5 with 0.6 mM EDTA, 5 mM MgCl2 and protease inhibitors, recentrifuged as above and the final pellet resuspended in membrane buffer plus 250 mM sucrose and frozen at −80° C.
Radioligand Binding. Membranes were resuspended in 50 mM Tris HCl (pH 7.4), 5 mM MgCl2, 0.1% BSA. The membrane suspensions (10 μg protein per well) were incubated in a 96 well microtiter plate with [^3H]-N-alpha-methylhistamine (approximately 1 nM final concentration), test compounds at various concentrations (0.01 nM-30 μM) and scintillation proximity beads (Perkin Elmer, FlashBlueGPCR Scintillating Beads) in a final volume of 80 μl for 4 hours at room temperature, protected from light. Non-specific binding was determined in the presence of 10 μM clobenpropit. Radioligand bound to receptor, and therefore in proximity to the scintillation beads, was measured using a MicroBeta scintillation counter.

Consider `O=C1C[C@H](O)CN1c1ccc2c(c1)COC1(CCN(C3CCC3)CC1)O2`, for which the Ki (in assay [1]; on human H3 receptor) was 200 to 1000 nM each time. Turning to `c1cc2c(cc1-c1ccc3c(c1)COC1(CCN(C4CCCC4)CC1)O3)CCO2`, the Ki on human H3 receptor was less than 200 nM.

Turning to `O=C1COCCN1c1ccc2c(c1)COC1(CCN(C3CCC3)CC1)O2`, the Ki is 200 to 1000 nM in assay [1] and less than 200 nM on human H3 receptor. For the compound `N#Cc1cccc(-c2ccc3c(c2)COC2(CCN(C4CCC4)CC2)O3)c1`, the inhibition constant (Ki) (in assay [1]; on human H3 receptor) was less than 200 nM throughout. For the compound `Cc1nnc(-c2ccc(-c3ccc4c(c3)COC3(CCN(C5CCC5)CC3)O4)cc2)o1`, the inhibition constant (Ki) (in assay [1]; on human H3 receptor) was less than 200 nM in each case. As for `O=C(c1ccc(-c2ccc3c(c2)COC2(CCN(C4CCC4)CC2)O3)cc1)N1CC[C@@H](O)C1`, the Ki (in assay [1]; on human H3 receptor) was less than 200 nM throughout. On to `CNS(=O)(=O)c1ccc(-c2ccc3c(c2)COC2(CCN(C4CCC4)CC2)O3)cc1`, for which the Ki (in assay [1]; on human H3 receptor) was less than 200 nM each time.

A word on the Ki: it is the dissociation constant of the complex between target and ligand, obtained from inhibition or displacement.
